This note sets out measurements from PMC4580724 (Clinical Pharmacokinetics, 2015).

SMILES strings stand for the structures.

The format of the data set is in vivo, human. The following applies: substrate + enzalutamide 160 mg/day vs substrate + placebo-to-match; n = 14.

On to `CC(=O)C[C@H](c1ccccc1)c1c(O)c2ccccc2oc1=O` [R-warfarin], for which the “AUC∞ geometric mean ratio test/reference (90 % CI)” value is recorded as 0.55 (0.51–0.58) and the “C max geometric mean ratio test/reference (90 % CI)” value is on record as 0.99 (0.93–1.05).
Taken in the same sequence, the figures for `CC(=O)C[C@@H](c1ccccc1)c1c(O)c2ccccc2oc1=O` [S-warfarin] were 0.44 (0.41–0.48) and 0.93 (0.86–0.99).
